According to patent publication US20220218627A1 (priority 2019, published 2022):

Tested on: Cluster headache patients
Experiment: Case studies (1-3) of individual Cluster headache patients
Conditions: IV, person

**Q.** For Magnesium sulfate, which “Case 3: success in shutting the cluster episode down” value is on record?
**A.** only partial success
